This passage reports activity change results from PubChem BioAssay (Tox21).

The structures appear in SMILES notation. Several values for one entry are separate records, joined by “and”; a condition that tells them apart may be missing. Identical values can stand only once. Only a part is listed here, and it is no random draw. Activity calls are given as the source filed them. Calls come from the whole dose curve.
% is set by controls: 0 for no effect and ±100 for the full control effect.

The nature of one test: qHTS assay to identify small molecule agonists of the sonic hedgehog signaling (Shh) pathway (AID 1259368).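 Note: NIH/3T3-derived 3T3Gli1-Luc cells carrying a stable Gli1-driven firefly luciferase reporter; nearly all actives have a fitted effect of over 15% in size.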 Conditions: NIH/3T3 Gli1-Luc reporter, luciferase, 24 h, stronger effect = higher value; at 92.4 µM (top of the series) unless noted. From the text:
National Center for Advancing Translational Sciences [NCATS]
NIH Chemical Genomics Center [NCGC]
U.S. Environmental Protection Agency [EPA]
National Institutes of Environmental Health Sciences [NIEHS]
National Toxicology Program [NTP]
The sonic hedgehog (Shh) pathway is essential for normal embryonic development. Dysregulation of the Shh pathway can cause severe developmental defects in organs. Therefore chemicals that interfere with the pathway are potential developmental toxicants. A cell line designated 3T3Gli1-Luc (DMB/OARSA/CFSAN/FDA, Laurel, MD), a NIH/3T3 derived clone containing stably integrated Gli1-Luc reporter is used to detect chemical interference of the Shh pathway, by changes in the expression of the firefly Luc gene under the control of the Gli1 transcriptional response element. This cell line was used to screen Tox21 libraries for identifying and prioritizing the potential developmental toxicants that interfere Shh pathway.
3T3 Gli1-Luc cells were dispensed at 2,000 per well in 5uL of culture medium into white solid bottom 1536-well plates (Greiner Bio-One, Monroe, NC) using a Multidrop Combi (Thermo Scientific, Waltham, MA) dispenser. The assay plates were incubated at 37 C and 5% CO2 for 4hr, and then 23nL of compounds dissolved in DMSO and positive control were transferred using a Pintool station (Wako, San Diego, CA). The assay plates were incubated at 37C and 5% CO2 for 24hr. For luciferase read, 4uL of Amplite Luciferase reporter gene assay reagent (AAT Bioquest, Inc. Sunnyvale, CA) was added to each well of the assay plates using Flying Reagent Dispenser (FRD, Aurora Discovery, San Diego, CA) and incubated at room temperature for 30min. The luminescence signal was measured using a ViewLux plate reader (Perkin Elmer, Shelton, CT).
On the technique in general: qHTS replaces the single test concentration by a dilution series.
On to `Nc1cc([N+](=O)[O-])cc([N+](=O)[O-])c1O`, for which the activity change was inactive: -1.93%.
In the case of `O=[N+]([O-])c1cccc([N+](=O)[O-])c1`, the activity change is inactive: 0.97%.
Consider `N=C(N)N[N+](=O)[O-]`, for which the activity change was inactive: 0.569%.
Still for that read-out and setting: with `Cc1cccc([N+](=O)[O-])c1[N+](=O)[O-]` the figure was inactive: 0.857% [at 42.5 µM]; with `Cc1c([N+](=O)[O-])cccc1[N+](=O)[O-]`, inactive: -0.279% and inactive: 0.372%; with `CP(=O)(O)OCCC[Si](O)(O)O`, inactive: 1.15%.
For the compound `CC(C)OP(C)(=O)OC(C)C`, the activity change is inactive: -0.877% and inactive: 0.849%.
Turning to `[NH4+].[O-][Cl+3]([O-])([O-])[O-]`, the activity change is inactive: -0.0454% and inactive: 0.0406%.
For `COP(C)(=O)OC`, the activity change is inactive: -0.471% and inactive: 0.0744%.
Consider `CN(C)CCCl`, for which the activity change was inactive: 0.509%.
Same read-out and setting: with `O=[N+]([O-])OCC(CO[N+](=O)[O-])(CO[N+](=O)[O-])CO[N+](=O)[O-]` the figure was inactive: -0.0079%; with `N#CBr`, inactive: -0.634%; with `CCOP(=O)(CC)Oc1ccc([N+](=O)[O-])cc1` (stereo not drawn), inactive: -0.173% [at 42.5 µM].
Still for that read-out and setting: with `O=[N+]([O-])[O-].[NH4+]` the figure was inactive: -1.63% and inactive: -0.786%.
Same read-out and setting: with `C/C1=C2N=C(/C=C3N=C(/C(C)=C4\[N-][C@@](C)([C@@H]5N=C1[C@](C)(CCC(=O)NC[C@@H](C)OP(=O)([O-])O[C@H]1[C@@H](O)[C@@H](n6cnc7cc(C)c(C)cc76)O[C@@H]1CO)[C@H]5CC(N)=O)[C@@](C)(CC(N)=O)[C@@H]4CCC(N)=O)[C@@](C)(CC(N)=O)[C@@H]\3CCC(N)=O)C(C)(C)[C@@H]/2CCC(N)=O.[C-]#N.[Co+3]` the figure was inactive: 2.02% [at 42.5 µM]; with `Cc1ccc([N+](=O)[O-])cc1[N+](=O)[O-]`, inactive: -3.5% and inactive: -0.319%.
Take `COc1ccc([N+](=O)[O-])cc1[N+](=O)[O-]`: the activity change was inactive: -0.144%.
In the case of `CC(C)N(CCO)C(C)C`, the activity change is inactive: -0.207%.
As to `CCOP(=O)(CC)OCC`, the activity change was inactive: -0.564%.
Turning to `CCN(CC)CCCl`, the activity change was inactive: -9.29%.
For the compound `Cc1ccc([N+](=O)[O-])c([N+](=O)[O-])c1`, the activity change is inactive: -9.17% and inactive: -16.4%.

The test is the same for the next values; noted with them: NIH/3T3 Gli1-Luc reporter, luciferase, 24 h; at 42.5 µM (top of the series); stronger effect = higher value.
As to `OCCSCCO`, the activity change is inactive: 0.75%.

Staying with this test, now noted: NIH/3T3 Gli1-Luc reporter, luciferase, 24 h; at 92.4 µM (top of the series); stronger effect = higher value.
With `OCCSCCO`, the activity change was inactive: 0%.
